Assay: Inhibition of perforin (unknown origin)-mediated 51Cr-labelled human Jurkat cell lysis preincubated with protein for 30 mins followed by cell addition measured after 4 hrs by gamma counting method

IC50: 13.8 µM
Structure (SMILES): COc1ccc(S(=O)(=O)Nc2cncc(-c3ccc(-c4ccc5c(c4)CN(C)C5=O)s3)c2)cc1OC

From BindingDB's records for doi:10.1016/j.ejmech.2017.05.048 (University of Auckland, 2017)
